Tests used:
[1] = molecular target: T1, Kappa-type opioid receptor (Homo sapiens, UniProt P41145); experiment: Competitive binding displacement analyses was performed from permanently transfected HEK293 cells expressing human Opioid receptor kappa 1
[2] = molecular target: T2, Delta-type opioid receptor (Homo sapiens, UniProt P41143); experiment: Competitive binding displacement analyses was performed from permanently transfected HEK293 cells expressing human Opioid receptor delta 1
Mu-type opioid receptor [3] = molecular target: T3, Mu-type opioid receptor (Homo sapiens, UniProt P35372); experiment: Competitive binding displacement analyses was performed from permanently transfected HEK293 cells expressing human Opioid receptor mu 1
Nociceptin receptor [4] = molecular target: T4, Nociceptin receptor (Homo sapiens, UniProt P41146); experiment: Competitive binding affinity against transfected HEK293 cells expressing human Opioid receptor like 1
[5] = molecular target: T1, Kappa-type opioid receptor; experiment: Competitive binding displacement analyses was performed from permanently transfected HEK293 cells expressing Opioid receptor kappa 1
Mu-type opioid receptor [6] = molecular target: T3, Mu-type opioid receptor; experiment: Competitive binding displacement analyses was performed from permanently transfected HEK293 cells expressing Opioid receptor mu 1
Nociceptin receptor [7] = molecular target: T4, Nociceptin receptor; experiment: Effective concentration required to stimulate binding of GTPgammaS to ORL1 receptor was determined using scintillation proximity assay
Nociceptin receptor [8] = molecular target: T4, Nociceptin receptor; experiment: Competitive binding affinity against transfected HEK293 cells expressing Opioid receptor like 1
[9] = molecular target: T2, Delta-type opioid receptor; experiment: Competitive binding displacement analyses was performed from permanently transfected HEK293 cells expressing Opioid receptor delta 1
Nociceptin receptor [10] = molecular target: T4, Nociceptin receptor; experiment: Effective concentration required to stimulate binding of GTPgammaS to human ORL1 receptor was determined using scintillation proximity assay
Mu-type opioid receptor [11] = molecular target: T3, Mu-type opioid receptor; experiment: Effective concentration of the required to stimulate binding of GTPgammaS to human mu1 receptor was determined using scintillation proximity assay
Mu-type opioid receptor [12] = molecular target: T3, Mu-type opioid receptor; experiment: Effective concentration of the required to stimulate binding of GTPgammaS to mu1 receptor was determined using scintillation proximity assay
Nociceptin receptor [13] = molecular target: T4, Nociceptin receptor; experiment: Effective concentration required to stimulate binding of GTPgammaS to Opioid receptor like 1 was determined using scintillation proximity assay

Chains of the proteins cited; added tags and fusions are not shown.
UniProt P41143, whole entry: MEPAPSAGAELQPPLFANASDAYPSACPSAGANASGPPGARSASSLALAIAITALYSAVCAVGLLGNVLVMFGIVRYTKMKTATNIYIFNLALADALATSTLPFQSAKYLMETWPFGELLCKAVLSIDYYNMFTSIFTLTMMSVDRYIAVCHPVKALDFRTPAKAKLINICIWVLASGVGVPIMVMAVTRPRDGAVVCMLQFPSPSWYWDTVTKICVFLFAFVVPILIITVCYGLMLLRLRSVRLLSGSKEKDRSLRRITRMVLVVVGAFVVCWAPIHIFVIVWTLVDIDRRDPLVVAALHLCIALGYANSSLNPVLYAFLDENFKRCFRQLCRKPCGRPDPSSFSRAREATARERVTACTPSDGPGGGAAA
UniProt P35372, whole entry: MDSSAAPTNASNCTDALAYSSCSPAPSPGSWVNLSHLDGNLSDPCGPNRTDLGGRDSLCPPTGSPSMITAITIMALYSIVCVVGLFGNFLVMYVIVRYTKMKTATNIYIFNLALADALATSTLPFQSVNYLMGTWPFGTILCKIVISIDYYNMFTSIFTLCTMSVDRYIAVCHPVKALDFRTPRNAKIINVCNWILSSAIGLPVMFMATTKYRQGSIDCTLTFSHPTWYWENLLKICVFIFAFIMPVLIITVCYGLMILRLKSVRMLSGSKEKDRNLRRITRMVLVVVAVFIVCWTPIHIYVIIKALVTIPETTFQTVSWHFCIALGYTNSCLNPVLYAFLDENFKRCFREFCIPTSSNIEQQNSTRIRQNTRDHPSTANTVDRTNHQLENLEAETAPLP
UniProt P41146, whole entry: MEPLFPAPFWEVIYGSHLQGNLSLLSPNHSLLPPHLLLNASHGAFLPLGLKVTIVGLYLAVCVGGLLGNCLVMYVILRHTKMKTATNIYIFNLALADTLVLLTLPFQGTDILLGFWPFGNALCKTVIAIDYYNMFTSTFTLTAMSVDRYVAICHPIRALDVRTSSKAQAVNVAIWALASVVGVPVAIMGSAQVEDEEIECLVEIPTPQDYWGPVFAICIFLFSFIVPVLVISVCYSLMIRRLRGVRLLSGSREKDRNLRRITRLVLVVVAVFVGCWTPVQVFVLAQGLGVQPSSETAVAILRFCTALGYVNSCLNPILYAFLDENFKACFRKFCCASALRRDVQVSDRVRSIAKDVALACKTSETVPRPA

| Structure (SMILES) | Ki [1] [nM] | Ki [2] [nM] | Ki (Mu-type opioid receptor [3]) [nM] | Ki (Nociceptin receptor [4]) [nM] | further results |
| --- | --- | --- | --- | --- | --- |
| O=C1NCN(c2ccccc2)C12CCN(C1CCc3c(Cl)cccc3C1)CC2 (centres undefined) | 20.7 | 450 | 8.9 | 2.9 |  |
| O=C1NCN(c2ccccc2)C12CCN([C@@H]1CCc3c(Cl)ccc(Cl)c3C1)CC2 | 47.3 | 587 | 8.4 | 20.7 |  |
| O=C1NCN(c2ccccc2)C12CCN(C1CCc3ccccc31)CC2 (centres undefined) |  |  |  |  | Ki [5]: 5.3 nM; Ki (Mu-type opioid receptor [6]): 3.4 nM; EC50 (Nociceptin receptor [7]): 7900 nM; Ki (Nociceptin receptor [8]): 0.7 nM; Ki [9]: 540 nM |
| O=C1NCN(c2ccccc2)C12CCN([C@H]1CCc3c(Cl)ccc(Cl)c3C1)CC2 | 40.1 | 415 | 5.9 | 2.8 |  |
| O=C1NCN(c2ccccc2)C12CCN(C1CCc3c(Cl)ccc(Cl)c3C1)CC2 (centres undefined) | 44.2 | 680 | 7.2 | 5.6 | EC50 (Nociceptin receptor [10]): 1500 nM; EC50 (Mu-type opioid receptor [11]): 310 nM |
| O=C1NCN(c2ccccc2)C12CCN(C1Cc3cccc4cccc1c34)CC2 (centres undefined) |  |  |  |  | EC50 (Mu-type opioid receptor [12]): 2500 nM |
| O=C1N(CCO)CN(c2ccccc2)C12CCN(C1CCc3cccc(Cl)c3C1)CC2 (centres undefined) | 16.4 | 285 | 3.3 | 7.2 |  |
| CN1CN(c2ccccc2)C2(CCN(C3CCc4c(Cl)ccc(Cl)c4C3)CC2)C1=O (centres undefined) | 17 | 313 | 2.6 | 3.3 |  |
| C=CCN1CN(c2ccccc2)C2(CCN(C3CCc4c(Cl)ccc(Cl)c4C3)CC2)C1=O (centres undefined) | 26.2 |  | 5.9 | 6.8 |  |
| COCN1CN(c2ccccc2)C2(CCN(C3CCc4cccc(Cl)c4C3)CC2)C1=O (centres undefined) |  |  |  |  | Ki [5]: 17.5 nM; Ki (Mu-type opioid receptor [6]): 7.5 nM; Ki (Nociceptin receptor [8]): 8.5 nM; Ki [9]: 240 nM |
| O=C1NCN(c2ccccc2)C12CCN(C1Cc3ccccc3C1)CC2 | 161 | 710 | 26 | 2.5 | EC50 (Nociceptin receptor [13]): 500 nM |

— ChEMBL document CHEMBL1132995, “High-affinity, non-peptide agonists for the ORL1 (orphanin FQ/nociceptin) receptor” (2000)
